Chains of the proteins cited; added tags and fusions are not shown.
UniProt P0DMS8, whole entry: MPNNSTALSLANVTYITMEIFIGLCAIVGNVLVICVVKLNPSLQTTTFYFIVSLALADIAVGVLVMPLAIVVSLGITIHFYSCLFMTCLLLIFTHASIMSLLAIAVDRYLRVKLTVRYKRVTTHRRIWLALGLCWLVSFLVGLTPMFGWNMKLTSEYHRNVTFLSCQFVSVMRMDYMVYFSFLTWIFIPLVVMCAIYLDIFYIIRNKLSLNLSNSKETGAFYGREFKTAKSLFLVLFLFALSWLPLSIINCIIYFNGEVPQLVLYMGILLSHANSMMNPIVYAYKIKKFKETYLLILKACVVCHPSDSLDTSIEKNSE

In publication PMC2713098 (Nuclear medicine and biology, 2009):

Molecular target: human A3AR (Homo sapiens, UniProt P0DMS8)
Conditions: Figures 1A and 1B

For CCNC(=O)[C@H]1O[C@@H](n2cnc3c(N)ncnc32)[C@H](O)[C@@H]1O [NECA, adenosine-5′-N-ethyluronamide], the “potency at human versus rat A3AR” value was “more potent at the human A3AR”.
